Experimental data as given in US8791267B2, “Biaryl PDE4 inhibitors for treating inflammatory, cardiovascular and CNS disorders” (Decode Genetics EHF, priority 2007, dated 2014).

Protein sequences, listed by entry. Tags and fused reporters are not part of them. Lines headed by an entry give the natural chain unless they say otherwise; changes in a name come on top.
UniProt Q08499: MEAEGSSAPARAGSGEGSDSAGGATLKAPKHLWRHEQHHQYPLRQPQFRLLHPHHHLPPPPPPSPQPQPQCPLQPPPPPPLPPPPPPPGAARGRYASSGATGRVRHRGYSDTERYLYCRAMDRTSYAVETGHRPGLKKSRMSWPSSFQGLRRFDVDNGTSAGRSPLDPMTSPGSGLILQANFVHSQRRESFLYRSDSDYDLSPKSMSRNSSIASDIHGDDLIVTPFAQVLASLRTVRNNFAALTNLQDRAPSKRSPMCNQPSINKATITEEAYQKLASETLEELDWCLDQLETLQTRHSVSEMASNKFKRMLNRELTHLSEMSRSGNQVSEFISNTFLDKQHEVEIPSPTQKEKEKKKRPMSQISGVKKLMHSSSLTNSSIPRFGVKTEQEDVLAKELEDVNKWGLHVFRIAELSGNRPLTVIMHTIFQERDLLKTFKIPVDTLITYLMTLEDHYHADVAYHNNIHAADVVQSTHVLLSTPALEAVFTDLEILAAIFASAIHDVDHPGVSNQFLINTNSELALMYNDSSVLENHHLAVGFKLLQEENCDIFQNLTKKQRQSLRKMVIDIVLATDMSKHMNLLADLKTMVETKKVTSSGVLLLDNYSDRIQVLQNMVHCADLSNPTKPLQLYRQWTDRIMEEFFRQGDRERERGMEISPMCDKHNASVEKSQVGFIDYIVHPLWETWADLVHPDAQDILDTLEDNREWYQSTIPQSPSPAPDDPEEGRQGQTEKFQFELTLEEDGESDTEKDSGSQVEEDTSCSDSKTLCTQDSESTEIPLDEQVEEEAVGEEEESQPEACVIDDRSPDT

Molecular target: PDE4 (Homo sapiens, UniProt Q08499)
Assay: In-vitro assay for PDE4 enzymes, real-time enzyme-coupled spectrophotometric assay (Table 9)
Format: biochemical
Details: read-out: hPDE4D

Question: Which IC50 does the source give for `COc1ccc(Cc2ccncc2)nc1-c1cccc([N+](=O)[O-])c1` [P-019, 3-methoxy-2-(3-nitro-phenyl)-6-pyridin-4-ylmethyl-pyridine] here?
Answer: < 5 µM
